Experimental data reported in publication doi:10.1101/2025.10.08.25337413 (medRxiv, 2025).

Chains of the proteins cited; added tags and fusions are not shown. Residues count along the entry.
UniProt P05067, 672-713: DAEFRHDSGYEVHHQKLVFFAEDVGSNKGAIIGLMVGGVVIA

Biological target: T1, biotinylated Aβ42 (human, UniProt P05067 672-713, biotin (position not given))
T1 construct: amyloid-beta 1-42, cut product of the amyloid precursor protein APP; numbers count on: the Aβ peptide; The ThT assay used unbiotinylated recombinant human Aβ 1–42 (rPeptide A-1170–1); also called Aβ 1–42; Aβ1–42; source: bought: rPeptide (A1117–1)
Assay: BLI; BLItz instrument; biotinylated Aβ40 or Aβ42 (10 uM) loaded 120 s on High Precision Streptavidin (SAX) biosensors; CRIP1 at 0.25, 0.5, 1, 9.1 mM (so in the source) associated 120 s, dissociation 120 s; Octet kinetics buffer; background subtracted; global fit
Conditions: both partners purified

- Kd: 7.58 µM
B1: recombinant human CRIP1 (natural protein, UniProt P50238 1-77, looked up)
chain: MPKCPKCNKEVYFAERVTSLGKDWHRPCLKCEKCGKTLTSGGHAEHEGKPYCNHPCYAAMFGPKGFGRGGAESHTFK
notes: CRIP1 (cysteine-rich intestinal protein family), human, recombinant; also called cysteine-rich intestinal protein; purified recombinant human CRIP1 His protein; source: recombinant; bought: Novus Biologicals (NBP2-22979), purified (source told for the ThT assay)
